Our source for the Ki values is US8802694B2, “3,6-diazabicyclo[3.1.1]heptanes as neuronal nicotinic acetycholine receptor ligands” (Targacept, Inc., priority 2009, dated 2014).

Chains of the proteins cited; added tags and fusions are not shown. Residues count along the entry.
UniProt P17787, 26-502 limits assumed: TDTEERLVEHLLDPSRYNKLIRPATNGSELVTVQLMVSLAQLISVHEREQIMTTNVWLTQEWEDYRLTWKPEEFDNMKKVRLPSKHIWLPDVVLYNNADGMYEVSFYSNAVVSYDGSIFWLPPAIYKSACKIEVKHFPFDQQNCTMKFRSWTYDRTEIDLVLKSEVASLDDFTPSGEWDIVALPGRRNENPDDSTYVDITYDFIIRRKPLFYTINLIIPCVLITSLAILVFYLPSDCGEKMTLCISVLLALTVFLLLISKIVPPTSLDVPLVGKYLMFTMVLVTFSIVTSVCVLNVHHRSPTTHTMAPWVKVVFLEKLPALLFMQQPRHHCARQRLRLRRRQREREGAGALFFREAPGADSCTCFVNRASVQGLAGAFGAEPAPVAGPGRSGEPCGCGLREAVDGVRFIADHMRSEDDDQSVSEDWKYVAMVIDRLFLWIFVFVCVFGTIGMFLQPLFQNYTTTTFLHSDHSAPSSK
UniProt P43681, 29-627 limits assumed: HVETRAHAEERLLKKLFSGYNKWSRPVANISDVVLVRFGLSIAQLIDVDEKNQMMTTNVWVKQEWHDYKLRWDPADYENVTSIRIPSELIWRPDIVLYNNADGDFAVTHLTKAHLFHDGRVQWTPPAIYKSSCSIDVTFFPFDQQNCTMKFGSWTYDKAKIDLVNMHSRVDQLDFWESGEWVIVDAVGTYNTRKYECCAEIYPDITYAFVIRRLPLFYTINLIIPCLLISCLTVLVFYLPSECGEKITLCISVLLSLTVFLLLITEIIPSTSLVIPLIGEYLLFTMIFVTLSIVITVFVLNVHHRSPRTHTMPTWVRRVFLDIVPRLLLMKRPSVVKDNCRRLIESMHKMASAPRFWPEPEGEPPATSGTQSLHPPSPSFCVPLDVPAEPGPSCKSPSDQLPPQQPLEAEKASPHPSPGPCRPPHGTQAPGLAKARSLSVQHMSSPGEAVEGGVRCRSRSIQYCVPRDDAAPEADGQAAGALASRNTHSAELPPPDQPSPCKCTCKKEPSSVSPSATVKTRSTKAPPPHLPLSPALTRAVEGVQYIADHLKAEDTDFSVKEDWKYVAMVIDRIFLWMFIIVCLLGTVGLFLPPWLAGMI

Broadly, the Ki is a dissociation constant, usually derived from enzyme kinetics or from competition with a known ligand.

This experiment has as its target Human α4β2 (Homo sapiens, UniProt P17787+P43681). As to the kind of experiment: Competition binding to human α4β2 receptors in membranes of SH-EP1/human α4β2 cells ([3H]-nicotine). To be noted: read-out: Human α4β2 Ki, membrane competition binding.

Turning to `Cc1ncoc1C(=O)N1CC2CC(C1)N2`, the Ki stood at 19 nM.
